# Source: EP0322747B1, “A brain neuron protecting agent containing a dihydropyridine compound” (priority 1987, dated 1989)
# Experiments:
# Assay in all cases: Prophylactic effect on ischemic breakdown of cytoskeletal proteins, 5-minute brain ischemia-reperfusion model
# Format in all cases: in vivo, gerbil
# clathrin = tested on: clathrin; design: key to Effect on decrease in Clathrin: +: Statistically significant; -: Not effective; details: for Total score, Clathrin: sum of left and right (in brackets)
# Protocol: (§1) A gerbil was immobilized in supine position and median section was performed in the cervical region under local anesthesia. Then, the bilateral common carotid arteries were stripped off carefully not to injure the vagus and sympathetic nerves running in parallel, . Then, each common carotid artery was obstructed with a small clip and after an interval of 5, 10 or 15 minutes, the clips were removed. The animal was decapitated immediately, 4 days or 1 week after the removal of the clips, and the brain was isolated. Untreated animals served as controls and animals undergoing sham operation (involving the stripping procedure only) were also investigated. The isolated brain was sectioned under ice-cooling into the frontal cortex (upper 2/3, approximately corresponding to the 1st to the 5th layer, ∼80 mg), striatum (∼20 mg) and hippocampus (∼50 mg) and each portion was homogenized in 4 times volume of (v/w) of 0.01 M phosphate buffer (pH 7.2). Each homogenate was centrifuged at 100,000 G for 30 minutes to obtain a supernatant. Equal parts of these supernatants were subjected to SDS-polyacrylamide gel (5%) electrophoresis and the proteins, namely MAP-2 (MW: 250-260K) calspectin (MW: 230-240K) and clathrin (MW: 180K), were quantified by measuring the absorbances at 560 nm with a densitometer (CS-930, Shimazu), and the proportion of each protein to the total water-soluble protein (exactly, the integral sum of the absorbance areas) was calculated. In addition, the relative percentage to the value of the untreated control group was also calculated.
# (§2) Two series of experiments were carried out. […] One hour after the reperfusion, the animal was killed by decapitation and the brain was removed. […] One hour after the final administration (day 5), the animal was decapitated and the brain was isolated. The isolated brain was subjected to fractionation and electrophoresis as described above.
# calspectin = tested on: calspectin; design: key to Effect on decrease in Calspectin: +: Statistically significant; -: Not effective; details: for Total score, Calspectin: sum of left and right (in brackets)
# Protocol: as §1, §2
# MAP-2 = tested on: MAP-2; design: key to Effect on decrease in MAP-2: +: Statistically significant; -: Not effective
# Protocol: as §1, §2
# [1] = Cortex, 0.01 mg/kg s.c. 1 hour before ischemia, 1 hour after ischemia
# [2] = Cortex, 0.1 mg/kg s.c. 1 hour before ischemia and once a day for 4 days, 4 days after ischemia
# [3] = Cortex, 0.1 mg/kg s.c. 1 hour before ischemia, 1 hour after ischemia
# [4] = Cortex, 1 mg/kg s.c. 1 hour before ischemia and once a day for 4 days, 4 days after ischemia
# [5] = Cortex, 1 mg/kg s.c. 1 hour before ischemia, 1 hour after ischemia
# [6] = Cortex, 10 mg/kg s.c. 1 hour before ischemia and once a day for 4 days, 4 days after ischemia
# [7] = Frontal cortex, Left: dosed 1 hour before ischemia, killed 1 hour after ischemia
# [8] = Frontal cortex, Right: dosed 1 hour before ischemia and for 4 subsequent days, killed 1 hour after the last dosing
# [9] = Hippocampus, 0.01 mg/kg s.c. 1 hour before ischemia, 1 hour after ischemia
# [10] = Hippocampus, 0.1 mg/kg s.c. 1 hour before ischemia and once a day for 4 days, 4 days after ischemia
# [11] = Hippocampus, 0.1 mg/kg s.c. 1 hour before ischemia, 1 hour after ischemia
# [12] = Hippocampus, 1 mg/kg s.c. 1 hour before ischemia and once a day for 4 days, 4 days after ischemia
# [13] = Hippocampus, 1 mg/kg s.c. 1 hour before ischemia, 1 hour after ischemia
# [14] = Hippocampus, 10 mg/kg s.c. 1 hour before ischemia and once a day for 4 days, 4 days after ischemia
# [15] = Hippocampus, Left: dosed 1 hour before ischemia, killed 1 hour after ischemia
# [16] = Hippocampus, Right: dosed 1 hour before ischemia and for 4 subsequent days, killed 1 hour after the last dosing
# [17] = Striatum, 0.01 mg/kg s.c. 1 hour before ischemia, 1 hour after ischemia
# [18] = Striatum, 0.1 mg/kg s.c. 1 hour before ischemia and once a day for 4 days, 4 days after ischemia
# [19] = Striatum, 0.1 mg/kg s.c. 1 hour before ischemia, 1 hour after ischemia
# [20] = Striatum, 1 mg/kg s.c. 1 hour before ischemia and once a day for 4 days, 4 days after ischemia
# [21] = Striatum, 1 mg/kg s.c. 1 hour before ischemia, 1 hour after ischemia
# [22] = Striatum, 10 mg/kg s.c. 1 hour before ischemia and once a day for 4 days, 4 days after ischemia
# [23] = Striatum, Left: dosed 1 hour before ischemia, killed 1 hour after ischemia
# [24] = Striatum, Right: dosed 1 hour before ischemia and for 4 subsequent days, killed 1 hour after the last dosing
structure (smiles),measurement,setting,value
"COC(=O)C1=C(C)NC(C)=C(C(=O)OCCN(C)Cc2ccccc2)C1c1cccc([N+](=O)[O-])c1 (stereo not shown) [Nicardipine, nicardipine]",Clathrin protein concentration,clathrin; [1],69.7± 5.8 % of normal value
same,Clathrin protein concentration,clathrin; [2],65.0± 6.6 % of normal value
same,Clathrin protein concentration,clathrin; [3],66.4± 5.0 % of normal value
same,Clathrin protein concentration,clathrin; [4],55.3± 2.6 % of normal value
same,Clathrin protein concentration,clathrin; [5],67.2± 3.7 % of normal value
same,Clathrin protein concentration,clathrin; [6],54.8± 2.0 % of normal value
same,Effect on decrease in Clathrin,clathrin; [7],-/-
same,Effect on decrease in Clathrin,clathrin; [8],-/-
same,Clathrin protein concentration,clathrin; [9],53.0± 6.1 % of normal value
same,Clathrin protein concentration,clathrin; [10],48.6± 8.9 % of normal value
same,Clathrin protein concentration,clathrin; [11],49.0± 3.3 % of normal value
same,Clathrin protein concentration,clathrin; [12],50.3± 5.2 % of normal value
same,Clathrin protein concentration,clathrin; [13],56.9± 7.6 % of normal value
same,Clathrin protein concentration,clathrin; [14],50.4± 4.9 % of normal value
same,Effect on decrease in Clathrin,clathrin; [15],-/-
same,Effect on decrease in Clathrin,clathrin; [16],-/-
same,Clathrin protein concentration,clathrin; [17],53.1± 9.2 % of normal value
same,Clathrin protein concentration,clathrin; [18],51.7± 7.4 % of normal value
same,Clathrin protein concentration,clathrin; [19],48.3± 3.9 % of normal value
same,Clathrin protein concentration,clathrin; [20],59.9± 7.3 % of normal value
same,Clathrin protein concentration,clathrin; [21],64.5± 6.5 % of normal value
same,Clathrin protein concentration,clathrin; [22],55.4± 7.3 % of normal value
same,Effect on decrease in Clathrin,clathrin; [23],-/-
same,Effect on decrease in Clathrin,clathrin; [24],-/-
same,"Total score, Clathrin",clathrin,0/0 (0)
same,Calspectin protein concentration,calspectin; [1],80.5± 5.1 % of normal value
same,Calspectin protein concentration,calspectin; [2],54.7± 8.3 % of normal value
same,Calspectin protein concentration,calspectin; [3],88.2± 4.5 % of normal value
same,Calspectin protein concentration,calspectin; [4],51.9±10.5 % of normal value
same,Calspectin protein concentration,calspectin; [5],88.8± 5.3 % of normal value
same,Calspectin protein concentration,calspectin; [6],64.6± 8.4 % of normal value
same,Effect on decrease in Calspectin,calspectin; [7],-/-
same,Effect on decrease in Calspectin,calspectin; [8],-/-
same,Calspectin protein concentration,calspectin; [9],78.5±11.8 % of normal value
same,Calspectin protein concentration,calspectin; [10],57.6± 4.8 % of normal value
same,Calspectin protein concentration,calspectin; [11],70.4± 5.3 % of normal value
same,Calspectin protein concentration,calspectin; [12],59.5± 6.7 % of normal value
same,Calspectin protein concentration,calspectin; [13],65.4± 9.2 % of normal value
same,Calspectin protein concentration,calspectin; [14],61.2± 9.1 % of normal value
same,Effect on decrease in Calspectin,calspectin; [15],-/-
same,Effect on decrease in Calspectin,calspectin; [16],-/-
same,Calspectin protein concentration,calspectin; [17],56.6± 4.4 % of normal value
same,Calspectin protein concentration,calspectin; [18],55.6± 7.3 % of normal value
same,Calspectin protein concentration,calspectin; [19],63.7± 5.8 % of normal value
same,Calspectin protein concentration,calspectin; [20],59.6± 4.6 % of normal value
same,Calspectin protein concentration,calspectin; [21],54.7± 6.0 % of normal value
same,Calspectin protein concentration,calspectin; [22],56.8± 6.4 % of normal value
same,Effect on decrease in Calspectin,calspectin; [23],-/-
same,Effect on decrease in Calspectin,calspectin; [24],-/-
same,"Total score, Calspectin",calspectin,0/0 (0)
same,MAP-2 protein concentration,MAP-2; [1],67.8± 7.7 % of normal value
same,MAP-2 protein concentration,MAP-2; [2],41.6± 5.6 % of normal value
same,MAP-2 protein concentration,MAP-2; [3],78.1± 7.0 % of normal value
same,MAP-2 protein concentration,MAP-2; [4],50.9± 6.3 % of normal value
same,MAP-2 protein concentration,MAP-2; [5],85.6± 9.7 % of normal value
same,MAP-2 protein concentration,MAP-2; [6],55.6± 6.1 % of normal value
same,Effect on decrease in MAP-2,MAP-2; [7],+/+
same,Effect on decrease in MAP-2,MAP-2; [8],+/+
same,MAP-2 protein concentration,MAP-2; [9],45.2± 6.2 % of normal value
same,MAP-2 protein concentration,MAP-2; [10],44.8± 4.5 % of normal value
same,MAP-2 protein concentration,MAP-2; [11],46.7± 2.6 % of normal value
same,MAP-2 protein concentration,MAP-2; [12],38.9± 6.4 % of normal value
same,MAP-2 protein concentration,MAP-2; [13],50.5± 4.4 % of normal value
same,MAP-2 protein concentration,MAP-2; [14],49.8± 4.3 % of normal value
same,Effect on decrease in MAP-2,MAP-2; [15],-/-
same,Effect on decrease in MAP-2,MAP-2; [16],-/-
same,MAP-2 protein concentration,MAP-2; [17],53.5± 5.4 % of normal value
same,MAP-2 protein concentration,MAP-2; [18],44.8± 2.9 % of normal value
same,MAP-2 protein concentration,MAP-2; [19],56.7± 9.4 % of normal value
same,MAP-2 protein concentration,MAP-2; [20],51.0± 6.8 % of normal value
same,MAP-2 protein concentration,MAP-2; [21],55.0± 4.3 % of normal value
same,MAP-2 protein concentration,MAP-2; [22],57.0± 2.2 % of normal value
same,Effect on decrease in MAP-2,MAP-2; [23],+/+
same,Effect on decrease in MAP-2,MAP-2; [24],+/+
"COCCOC(=O)C1=C(C)NC(C)=C(C(=O)OC(C)C)C1c1cccc([N+](=O)[O-])c1 (stereo not shown) [Nimodipine, nimodipine]",Effect on decrease in Clathrin,clathrin; [7],-/-
same,Effect on decrease in Clathrin,clathrin; [8],-/-
same,Effect on decrease in Clathrin,clathrin; [15],-/-
same,Effect on decrease in Clathrin,clathrin; [16],-/-
same,Effect on decrease in Clathrin,clathrin; [23],-/-
same,Effect on decrease in Clathrin,clathrin; [24],-/-
same,"Total score, Clathrin",clathrin,0/0 (0)
same,Calspectin protein concentration,calspectin; [1],74.2± 8.5 % of normal value
same,Calspectin protein concentration,calspectin; [2],45.3± 8.9 % of normal value
same,Calspectin protein concentration,calspectin; [3],67.2±13.6 % of normal value
same,Calspectin protein concentration,calspectin; [4],45.6±15.1 % of normal value
same,Calspectin protein concentration,calspectin; [5],80.2± 6.0 % of normal value
same,Calspectin protein concentration,calspectin; [6],44.2±13.0 % of normal value
same,Effect on decrease in Calspectin,calspectin; [7],-/-
same,Effect on decrease in Calspectin,calspectin; [8],-/-
same,Calspectin protein concentration,calspectin; [9],58.9± 4.6 % of normal value
same,Calspectin protein concentration,calspectin; [10],69.3±11.2 % of normal value
same,Calspectin protein concentration,calspectin; [11],78.3±12.7 % of normal value
same,Calspectin protein concentration,calspectin; [12],62.6±14.5 % of normal value
same,Calspectin protein concentration,calspectin; [13],84.5±18.3 % of normal value
same,Calspectin protein concentration,calspectin; [14],69.5± 6.5 % of normal value
same,Effect on decrease in Calspectin,calspectin; [15],-/-
same,Effect on decrease in Calspectin,calspectin; [16],-/-
same,Calspectin protein concentration,calspectin; [17],51.8± 7.5 % of normal value
same,Calspectin protein concentration,calspectin; [18],46.6± 9.3 % of normal value
same,Calspectin protein concentration,calspectin; [19],67.6±12.2 % of normal value
same,Calspectin protein concentration,calspectin; [20],59.1± 4.6 % of normal value
same,Calspectin protein concentration,calspectin; [21],63.9±17.6 % of normal value
same,Calspectin protein concentration,calspectin; [22],58.9± 5.3 % of normal value
same,Effect on decrease in Calspectin,calspectin; [23],-/-
same,Effect on decrease in Calspectin,calspectin; [24],-/-
same,"Total score, Calspectin",calspectin,0/0 (0)
same,MAP-2 protein concentration,MAP-2; [1],55.7± 7.8 % of normal value
same,MAP-2 protein concentration,MAP-2; [2],46.2±12.0 % of normal value
same,MAP-2 protein concentration,MAP-2; [3],61.8±10.6 % of normal value
same,MAP-2 protein concentration,MAP-2; [4],35.7±14.2 % of normal value
same,MAP-2 protein concentration,MAP-2; [5],65.3± 6.3 % of normal value
same,MAP-2 protein concentration,MAP-2; [6],41.6±16.5 % of normal value
same,Effect on decrease in MAP-2,MAP-2; [7],-/-
same,Effect on decrease in MAP-2,MAP-2; [8],-/-
same,MAP-2 protein concentration,MAP-2; [9],41.7± 2.6 % of normal value
same,MAP-2 protein concentration,MAP-2; [10],53.6± 5.2 % of normal value
same,MAP-2 protein concentration,MAP-2; [11],44.5± 5.4 % of normal value
same,MAP-2 protein concentration,MAP-2; [12],54.8± 9.4 % of normal value
same,MAP-2 protein concentration,MAP-2; [13],61.9± 9.9 % of normal value
same,MAP-2 protein concentration,MAP-2; [14],57.2±13.0 % of normal value
same,Effect on decrease in MAP-2,MAP-2; [15],+
same,Effect on decrease in MAP-2,MAP-2; [16],-
same,MAP-2 protein concentration,MAP-2; [17],54.5± 5.9 % of normal value
same,MAP-2 protein concentration,MAP-2; [18],37.2± 7.3 % of normal value
same,MAP-2 protein concentration,MAP-2; [19],53.9± 7.8 % of normal value
same,MAP-2 protein concentration,MAP-2; [20],65.2± 3.1 % of normal value
same,MAP-2 protein concentration,MAP-2; [21],56.8± 7.1 % of normal value
same,MAP-2 protein concentration,MAP-2; [22],67.8±10.2 % of normal value
same,Effect on decrease in MAP-2,MAP-2; [23],+/+
same,Effect on decrease in MAP-2,MAP-2; [24],+/+
